Test results from PubChem BioAssay AID873 (PCMD, 2007).
Values joined by “and” are separate entries in the source; they are usually repeats but may differ in a detail not shown here. Equal values may be shown once. The entries are a selection whose mix differs from that of the whole data set. Active and inactive are the calls of the source.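 Rule for the calls: active = inhibition of 40% or more; inactive = the rest.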

By UniProt entry, the sequences of proteins in these tests, tags left out.
UniProt Q9Y337, whole entry, looked up: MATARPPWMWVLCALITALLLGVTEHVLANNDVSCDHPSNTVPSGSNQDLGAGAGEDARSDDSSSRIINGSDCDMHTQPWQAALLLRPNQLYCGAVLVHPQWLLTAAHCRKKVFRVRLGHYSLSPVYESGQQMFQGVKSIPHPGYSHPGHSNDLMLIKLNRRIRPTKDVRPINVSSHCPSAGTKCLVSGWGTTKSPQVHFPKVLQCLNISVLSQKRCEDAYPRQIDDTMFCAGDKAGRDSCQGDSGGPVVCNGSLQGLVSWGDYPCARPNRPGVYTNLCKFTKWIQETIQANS

Each molecule was assayed against Kallikrein-5 (Homo sapiens) (UniProt Q9Y337) (assay: human KLK5 protease inhibitors, primary screen, biochemical, 1536-well (AID 873;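 note: 0% = enzyme controls without compound and 100% = no-enzyme blanks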)). Details: recombinant hK5, fluorogenic AMC substrate cleavage; at 5 µM; hits give high values.
For COc1ccc(C2=NCC(CBr)S2)cc1 (stereo not given), the inhibition was inactive: 2.07%. With O=[N+]([O-])c1cccc2n[nH]nc12 the inhibition was inactive: -1.38%. CC(=O)N1C2C3N(C(C)=O)C1C1N(C(C)=O)C(C(N1C(C)=O)N3C(C)=O)N2C(C)=O was tested, and the inhibition was inactive: -5.17%. In the case of CCc1nc2c(n1)c1c(non1O)c1c2no[n+]1[O-], the inhibition is reported as inactive: 0.35%. For O=[N+]([O-])c1cc([N+](=O)[O-])c(CCNc2ccccc2)c([N+](=O)[O-])c1, the inhibition was inactive: -10.6%. With Cc1ccc(NP(=O)(Oc2ccccc2)Oc2ccccc2)nc1 the inhibition was inactive: -6.22%. For CC(C)(C)C(=O)NC(Sc1ccncn1)C(Cl)(Cl)Cl (stereo not given), the inhibition was inactive: -2%. In the case of O=[N+]([O-])c1ncn(CCn2ncnc2[N+](=O)[O-])n1, the inhibition is reported as inactive: -1.2%. O=[N+]([O-])c1cccc(NC2=NCC(CBr)S2)c1 (stereo not given) was tested, and the inhibition was inactive: 0.81%. For O=C(O)CNc1ccc([As](=O)(O)O)cc1, the inhibition was inactive: -14.8%. O=C(Nc1cc([As](=O)(O)O)ccc1O)c1ccccc1 was tested, and the inhibition was inactive: -11.7%. In the case of CCN(N=Nc1nonc1N)c1nonc1N, the inhibition is reported as inactive: -2.1%. With Nc1cccc2ccc([As](=O)(O)O)cc12 the inhibition was inactive: -10.3%. O=C(O)c1ccccc1[As](=O)(O)O was tested, and the inhibition was inactive: 3.02%. For CC(=O)Nc1ccc([As](=O)(O)O)cc1, the inhibition was inactive: 3.42%. O=P(Nc1nc2ccc(Cl)cc2s1)(c1ccccc1)c1ccccc1 was tested, and the inhibition was inactive: -21.2%. Cc1ccc(NP(=O)(Oc2ccccc2F)Oc2ccccc2F)nc1 was tested, and the inhibition was inactive: 30.4%. In the case of CCOP(=O)(Nc1ccccc1)OCC, the inhibition is reported as inactive: -3.39% and inactive: -2.61%. For Cc1cc(SC(NC(=O)c2ccc(F)cc2)C(Cl)(Cl)Cl)ncn1 (stereo not given), the inhibition was inactive: -5.82%. For CC(C)CC(=O)NC(Sc1ccc(Cl)cc1)C(Cl)(Cl)Cl (stereo not given), the inhibition was inactive: -22.6%. For Nc1cc(N)c2nonc2c1[N+](=O)[O-], the inhibition was inactive: 4.89%. In the case of Cc1c2non([O-])c-2c(C)[n+](=O)[n+]1[O-], the inhibition is reported as inactive: 23.6%. For O=C(NC(Sc1ccncn1)C(Cl)(Cl)Cl)c1ccccc1 (stereo not given), the inhibition was inactive: -6.67%. With Oc1ccccc1CNc1ccccn1 the inhibition was inactive: 5.96%. For NC(=O)c1cc([N+](=O)[O-])cc([N+](=O)[O-])c1N, the inhibition was inactive: -5.62%. Cc1ccc(N/C(=N/P(=O)(N2CCOCC2)N2CCOCC2)N2CCOCC2)cc1 was tested, and the inhibition was inactive: 1.6%. For Cc1ccc(OP(=O)(Nc2nccs2)Oc2ccc(C)cc2)cc1, the inhibition was inactive: 2.87%. With COc1ccccc1OP(=O)(Nc1ccc(C)cn1)Oc1ccccc1OC the inhibition was inactive: 0.64%. For Clc1ccc(Cl)c(NC2=NCC(CBr)S2)c1 (stereo not given), the inhibition was inactive: 11.4%. For CN1CCCC(OC(=O)C(c2ccccc2)c2ccccc2)C1 (stereo not given), the inhibition was inactive: -7.37%. In the case of C[C@@H]1C=CCP(=O)(Oc2ccccc2)O1 (stereo not given in full), the inhibition is reported as inactive: 0.06%. C[C@H]1OP(=O)(Oc2ccccc2)C[C@@H]2O[C@@H]21 (stereo not given in full) was tested, and the inhibition was inactive: -0.96%. In the case of CC(=O)Nc1ccc(Oc2c([N+](=O)[O-])cc([N+](=O)[O-])cc2[N+](=O)[O-])cc1, the inhibition is reported as inactive: -4.95%. For CC(=O)Nc1ccc([As](=O)(O)O)c(O)c1, the inhibition was inactive: -1.28%. CCOc1ccc(C2=NCC(CBr)S2)cc1 (stereo not given) was tested, and the inhibition was inactive: -0.17%. With O=P1(Nc2nc3ccc(Cl)cc3s2)COc2ccccc2O1 (stereo not given) the inhibition was inactive: -8.3%. CC(C)(C)C(=O)NC(Sc1ccccc1)C(Cl)(Cl)Cl (stereo not given) was tested, and the inhibition was inactive: -11.8%. With Cc1ccc(OP(=O)(Nc2ccccn2)Oc2ccc(C)cc2)cc1 the inhibition was inactive: -1.72%. With CC(=O)NC(SC(=S)N(CC(C)C)CC(C)C)C(Cl)(Cl)Cl (stereo not given) the inhibition was inactive: 23.2%. For COC(=O)c1cc2c(s1)N=C(c1ccccc1)N(C)P2(=O)N1CCOCC1 (stereo not given), the inhibition was inactive: -6.79%. With CCC(=O)N1C2C3N(C(=O)CC)C1C1N(C(=O)CC)C(C(N1C(=O)CC)N3C(=O)CC)N2C(=O)CC the inhibition was inactive: -25.1%. For CN(C)C(=O)Oc1noc2ccccc12, the inhibition was inactive: 4.65%. With O=c1c2cc([N+](=O)[O-])ccc2[nH]c2c([N+](=O)[O-])cc([N+](=O)[O-])cc12 the inhibition was inactive: 4.46%. Cc1ccccc1OP(=O)(Nc1ccccn1)Oc1ccccc1C was tested, and the inhibition was inactive: 4.08%. With CCNC(=S)/N=C(\N)N[N+](=O)[O-] the inhibition was inactive: -24.8%. For O=C(NC1CCS(=O)(=O)C1)NP(=S)(Oc1ccccc1)Oc1ccccc1 (stereo not given), the inhibition was inactive: -1.49%. In the case of CCOC(=O)NC(Sc1ccccc1)C(Cl)(Cl)Cl (stereo not given), the inhibition is reported as inactive: -11.2%. With Cc1ccc(NP(=O)(Oc2cccc(C)c2)Oc2cccc(C)c2)nc1 the inhibition was inactive: 2.76%. In the case of c1ccc(-c2nn[nH]n2)c(-c2nn[nH]n2)c1, the inhibition is reported as inactive: -2.15%. For O=[N+]([O-])c1ncn(CCn2cnc([N+](=O)[O-])n2)n1, the inhibition was inactive: -2.32%. With CC(=O)NC(SC(=S)N(C)C)C(Cl)(Cl)Cl (stereo not given) the inhibition was inactive: -11.2%. In the case of O=[As](O)(c1ccccc1)c1ccc(O)cc1, the inhibition is reported as inactive: 9.11%. With Nc1ccc([As](=O)(O)c2ccc([N+](=O)[O-])cc2)cc1 the inhibition was inactive: -7.39%. C(Cc1nn[nH]n1)Cc1nn[nH]n1 was tested, and the inhibition was inactive: -15.9%. With O=C(OC1CN2CCC1CC2)c1cccc(Cl)c1 (stereo not given) the inhibition was inactive: -10.4%. With O=P(Nc1ccccn1)(c1ccc(Br)cc1)c1ccc(Br)cc1 the inhibition was inactive: -0.41%. C[C@H]1OP(=O)(Oc2ccccc2)[C@H](O)[C@H](O)[C@H]1N=[N+]=[N-] (stereo not given in full) was tested, and the inhibition was inactive: 1.48%. For O=P(Nc1nc2ccccc2s1)(c1ccccc1)c1ccccc1, the inhibition was inactive: -13.7%. In the case of CC(C)C(=O)NC(Sc1ccccc1)C(Cl)(Cl)Cl (stereo not given), the inhibition is reported as inactive: -0.58%. O=P(Nc1nccs1)(c1ccccc1)c1ccccc1 was tested, and the inhibition was inactive: -0.74%.
